The values below come from US20110082114A1, “Methods of Treating Aneurysmal Dilatation, Blood Vessel Wall Weakness and Specifically Abdominal Aortic and Thoracic Aneurysm Using Matrix Metalloprotease-2 Inhibitors” (SYMPHONY EVOLUTION, INC., priority 2009, published 2011).

This assay deals with T1, mADAM-10 or hADAM-10 (UniProt O14672).
T1 sequence (O14672 1-748): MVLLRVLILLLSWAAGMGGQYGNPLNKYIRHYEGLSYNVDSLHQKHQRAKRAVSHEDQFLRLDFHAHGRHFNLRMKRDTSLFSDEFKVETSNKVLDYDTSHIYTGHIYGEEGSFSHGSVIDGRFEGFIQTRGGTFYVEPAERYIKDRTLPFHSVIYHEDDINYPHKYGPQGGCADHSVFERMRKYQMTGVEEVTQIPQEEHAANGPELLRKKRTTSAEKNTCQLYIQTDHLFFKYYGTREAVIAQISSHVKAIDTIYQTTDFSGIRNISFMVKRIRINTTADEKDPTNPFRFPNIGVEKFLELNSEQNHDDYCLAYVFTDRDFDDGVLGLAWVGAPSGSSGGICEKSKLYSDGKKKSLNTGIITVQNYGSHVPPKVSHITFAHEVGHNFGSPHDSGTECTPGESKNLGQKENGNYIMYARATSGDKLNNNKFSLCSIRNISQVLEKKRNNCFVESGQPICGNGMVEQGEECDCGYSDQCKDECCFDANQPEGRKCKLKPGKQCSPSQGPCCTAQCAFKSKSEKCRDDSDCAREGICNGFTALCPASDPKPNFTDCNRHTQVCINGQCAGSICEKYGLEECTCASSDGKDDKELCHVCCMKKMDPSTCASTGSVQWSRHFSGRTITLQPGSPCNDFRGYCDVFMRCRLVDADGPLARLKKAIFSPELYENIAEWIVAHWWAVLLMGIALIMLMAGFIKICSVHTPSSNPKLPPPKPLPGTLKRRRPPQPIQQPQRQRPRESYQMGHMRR
In words: ADAM-10 enzyme assay (fluorogenic peptide cleavage).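 Note: fluorescence from cleavage of a quenched 10-residue DABCYL/EDANS peptide by 5 nM enzyme in HEPES pH 8.0 buffer, 16 hr at room temperature, compounds serially diluted 100 µM to 0.5 nM.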 It counts as biochemical.

In general, IC50 refers to the midpoint of a concentration-inhibition curve. Low values mean higher potency, high ones lower potency.

The molecule `COCCOC(=O)N1CCN(S(=O)(=O)c2cc(F)c(Oc3ccc(Cl)cc3)c(F)c2)[C@@H](C(=O)NO)C1` [Entry 15] showed an IC50 below 0.05 µM.
